In patent US20260048059A1, “USE OF SUBSTITUTED BENZOXAZOLE AND BENZOFURAN COMPOUNDS FOR THE TREATMENT AND PREVENTION OF DISEASES ASSOCIATED WITH CHRONIC FATIGUE, EXHAUSTION AND/OR EXERTIONAL INTOLERANC” (MITODICURE GMBH, priority 2022, published 2026):

Test system: isolated rat soleus muscle
Assay: Ex vivo isolated rat soleus muscle: residual contractile force in high KCl (12.5 mM) buffer
Conditions: for Activity on residual contractile force compared with dipyridamole: in presence of salbutamol, KCl 12.5 mM buffer; for Mean residual contractile force in % (SEM in %): 30 min in KCl 12.5 mM buffer

Row | SMILES | Activity on residual contractile force compared with dipyridamole | Mean residual contractile force in % (SEM in %) (test compound 16.8 nM in presence of salbutamol 1 μM) | Mean residual contractile force in % (SEM in %) (test compound 0.3 μM in presence of salbutamol 1 μM)
1 | CN(C)C(=O)CNCc1nc2cc(Cl)c3c(c2o1)C1(CCCCC1)NC(=O)N3 | more active than dipyridamole | 60.5 (3.0); n = 6; p < 0.01% | 
2 | CN(C)C1CCN(C(=O)c2cc3cc(Cl)c4c(c3o2)C2(CCCCC2)NC(=O)N4)CC1 | more active than dipyridamole |  | 73.7 (9.6); n = 4; p < 0.05%
